Values of other authors as cited in article PMC8819907 (Journal of Experimental & Clinical Cancer Research : CR, 2022).
Like-named read-outs stand apart in the source and are kept apart here.

Tests used:
[1] = test system: patients with advanced melanoma; details: cited from earlier work; for Anemia / Increased alanine aminotransferase (ALT) / Increased alkaline phosphatase / Increased aspartate aminotransferase (AST): laboratory abnormality
[2] = test system: patients with advanced solid tumors; details: cited from earlier work
[3] = test system: patients in clinical trials of trametinib; details: cited from earlier work

CC(=O)Nc1cccc(-n2c(=O)n(C3CC3)c(=O)c3c(Nc4ccc(I)cc4F)n(C)c(=O)c(C)c32)c1 [Trametinib, equimolecular combination of acetamide, N-[3-[3-cyclopropyl-5-[(2-fluoro-4-iodophenyl)amino]-3,4,6,7-tetrahydro6,8-dimethyl-2,4,7-trioxopyrido[4,3-d]pyrimidin-1(2H)-yl]phenyl] with 1,1’-sulfinylbis[methane]]
cardiomyopathy ([1]; 14/211 patients): 7%
Abdominal pain ([1]; All Grades): 13%
Dermatitis acneiform ([1]; All Grades): 19%
Diarrhea ([1]; All Grades): 43%
Dry skin ([1]; All Grades): 11%
Hemorrhage ([1]; All Grades): 13%
Hypertension ([1]; All Grades): 15%
Lymphedema ([1]; All Grades): 32%
Paronychia ([1]; All Grades): 10%
Rash ([1]; All Grades): 57%
Abdominal pain ([1]; Grades 3 and 4): 1%
Dermatitis acneiform ([1]; Grades 3 and 4): < 1%
Diarrhea ([1]; Grades 3 and 4): 0%
Dry skin ([1]; Grades 3 and 4): 0%
Hemorrhage ([1]; Grades 3 and 4): < 1%
Hypertension ([1]; Grades 3 and 4): 12%
Lymphedema ([1]; Grades 3 and 4): 1%
Paronychia ([1]; Grades 3 and 4): 0%
Rash ([1]; Grades 3 and 4): 8%
Anemia ([1]; All Grades): 38%
Increased alanine aminotransferase (ALT) ([1]; All Grades): 39%
Increased alkaline phosphatase ([1]; All Grades): 24%
Increased aspartate aminotransferase (AST) ([1]; All Grades): 60%
Anemia ([1]; Grades 3 and 4): 2%
Increased alanine aminotransferase (ALT) ([1]; Grades 3 and 4): 3%
Increased alkaline phosphatase ([1]; Grades 3 and 4): 2%
Increased aspartate aminotransferase (AST) ([1]; Grades 3 and 4): 2%
median onset of cardiomyopathy ([1]; range: 16 to 156 days): 63 days
RP2D for single agent [2]: 2 mg/day
Grade 4 cardiac-related AEs ([3]; 2.0 mg monotherapy): no subjects
grade 3 cardiac-related AEs ([3]; 2.0 mg monotherapy): 18 subjects
cases of RVO ([3]; entire trametinib program as of 23 June 2013): four cases
